Measured affinities in a library of Ab-14 light chain variants

The measurements come from Engelhart et al. 2022 (doi:10.1038/s41597-022-01779-4) through the FLAb antibody collection.

All variants were tested on one target, the spike HR2 peptide PDVDLGDISGINAS (SARS-CoV-2).

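The parent was found by panning a naive human phage display library on the peptide. Variants in AAYL50 differ from the parent at up to three CDR positions; double and triple changes were sampled at random. In AlphaSeq, yeast of one mating type display the scFv and yeast of the other type display the target. Pairs that bind mate more often; barcode pairs of the diploids are counted by sequencing. Each replicate has its own calibration line, from reference interactions of the BCL2 family. Each pool was mated in three replicate cultures.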

Parent scFv Ab-14: VH joined to VL by a 15-residue (Gly4Ser)3 linker. Changes lie in the light chain CDRs alone.
VH: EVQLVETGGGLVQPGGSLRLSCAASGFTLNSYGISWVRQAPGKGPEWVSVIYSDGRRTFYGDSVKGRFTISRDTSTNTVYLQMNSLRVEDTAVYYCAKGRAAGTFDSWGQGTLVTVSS
VL: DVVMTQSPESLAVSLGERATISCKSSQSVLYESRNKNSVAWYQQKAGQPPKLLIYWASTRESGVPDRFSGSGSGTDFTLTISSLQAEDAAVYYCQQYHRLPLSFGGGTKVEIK

The whole VL of each variant is written out. This list gathers variants with a substitution at V39 (VL, numbered from residue 1). Kd is apparent (estimated from mating counts) and averaged on the log scale over replicates with a signal. Smaller is tighter. An entry "nd" has no value in the source: the pair was not observed among the diploids in any replicate. This suggests poor binding but is not conclusive. For reference, the parent read 4.4 nM as the reference entry and 48 nM as a member of this library. Empty control strains, which show no peptide, gave a signal in 18% of pairings with library AAYL50; the median was 15 µM and 95% of these signals were weaker than 970 nM. No background was subtracted. Also given: how often the same scFv was detected with the empty control strains.

With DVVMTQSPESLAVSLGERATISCKSSQSVLYESRNKNSYAWYQQKAGQPPKLLIYWASTRESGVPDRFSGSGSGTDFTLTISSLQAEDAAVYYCQQYHRLWNSFGGGTKVEIK the result was nd (0 of 3 replicates; controls 0 of 9). Variant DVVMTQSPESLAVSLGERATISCKSSRSVLYESRNKNSPAWYQQKAGQPPKLLIYWADTRESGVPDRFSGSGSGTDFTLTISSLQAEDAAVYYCQQYHRLPLSFGGGTKVEIK showed 5.3 µM (1 of 3 replicates; controls 4 of 9). With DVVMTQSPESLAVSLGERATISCKSSQSVLYESRNKNSCAWYQQKAGQPPKLLIYIQSTRESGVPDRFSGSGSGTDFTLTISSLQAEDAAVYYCQQYHRLPLSFGGGTKVEIK the result was 61 µM (2 of 3 replicates; controls 3 of 9). Variant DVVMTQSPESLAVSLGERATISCKSSQSVLMESRNKNSNAWYQQKAGQPPKLLIYWASTRESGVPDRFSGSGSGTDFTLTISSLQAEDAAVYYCQTYHRLPLSFGGGTKVEIK gave nd (0 of 3 replicates; controls 0 of 9). For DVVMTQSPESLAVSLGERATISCKSSQSVLYESRNKKSQAWYQQKAGQPPKLLIYWASTRESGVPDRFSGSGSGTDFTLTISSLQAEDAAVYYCQQYHHLPLSFGGGTKVEIK, the assay gave nd (0 of 3 replicates; controls 0 of 9).

Variant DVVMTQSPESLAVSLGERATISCKSSQSVCYESRFKNSKAWYQQKAGQPPKLLIYWASTRESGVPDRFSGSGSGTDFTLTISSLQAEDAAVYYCQQYHRLPLSFGGGTKVEIK showed 10 µM (1 of 3 replicates; controls 2 of 9). Variant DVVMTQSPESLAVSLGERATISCKSSVSVLYESRNKNSGAWYQQKAGQPPKLLIYWASDRESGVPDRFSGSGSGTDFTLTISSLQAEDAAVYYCQQYHRLPLSFGGGTKVEIK showed 2.3 mM (1 of 3 replicates; controls 2 of 9). For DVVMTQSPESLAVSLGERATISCKSSQSVLYESRNKNSEAWYQQKAGQPPKLLIYWASTRESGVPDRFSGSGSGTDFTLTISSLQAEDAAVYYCQQYHRPPLSFGGGTKVEIK, the assay gave nd (0 of 3 replicates; controls 1 of 9). Variant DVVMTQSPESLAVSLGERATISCKSSQSVLYESRNKNSAAWYQQKAGQPPKLLIYWAETRESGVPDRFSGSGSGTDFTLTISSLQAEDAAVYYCQQYHRLPLIFGGGTKVEIK showed nd (0 of 3 replicates; controls 4 of 9). For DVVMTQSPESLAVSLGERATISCKSEQSVLYESRNKMSEAWYQQKAGQPPKLLIYWASTRESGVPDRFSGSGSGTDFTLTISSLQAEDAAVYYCQQYHRLPLSFGGGTKVEIK, the assay gave 22 µM (1 of 3 replicates; controls 2 of 9).

For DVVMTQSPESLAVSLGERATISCNSSQSVLYESRNKNSEAWYQQKAGQPPKLLIYGASTRESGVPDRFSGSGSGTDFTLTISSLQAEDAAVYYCQQYHRLPLSFGGGTKVEIK, the assay gave nd (0 of 3 replicates; controls 1 of 9). For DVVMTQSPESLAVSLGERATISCKSSQSVLYESRNKNSLAWYQQKAGQPPKLLIYWASTRESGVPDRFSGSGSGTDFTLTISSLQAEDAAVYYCQLYHRLPLSFGGGTKVEIK, the assay gave 38 nM (3 of 3 replicates; controls 0 of 9). Variant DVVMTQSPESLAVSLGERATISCKSSQSVLYESRNNNSKAWYQQKAGQPPKLLIYWASTRPSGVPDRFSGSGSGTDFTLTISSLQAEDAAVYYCQQYHRLPLSFGGGTKVEIK showed nd (0 of 3 replicates; controls 0 of 9). Variant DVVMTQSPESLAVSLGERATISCKSSQSVLYESRNKFSRAWYQQKAGQPPKLLIYWAYTRESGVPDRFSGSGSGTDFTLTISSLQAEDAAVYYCQQYHRLPLSFGGGTKVEIK gave 32 µM (3 of 3 replicates; controls 3 of 9). Variant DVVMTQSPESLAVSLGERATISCKFSQEVLYESRNKNSAAWYQQKAGQPPKLLIYWASTRESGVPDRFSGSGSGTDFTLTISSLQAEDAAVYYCQQYHRLPLSFGGGTKVEIK showed 64 nM (3 of 3 replicates; controls 1 of 9).

Variant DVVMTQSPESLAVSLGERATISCHSSQSVLYESWNKNSAAWYQQKAGQPPKLLIYWASTRESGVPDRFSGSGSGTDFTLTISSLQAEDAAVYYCQQYHRLPLSFGGGTKVEIK showed 6.3 µM (3 of 3 replicates; controls 4 of 9). Variant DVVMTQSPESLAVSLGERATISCKSSQSVLLESRNKNSYAWYQQKAGQPPKLLIYWAFTRESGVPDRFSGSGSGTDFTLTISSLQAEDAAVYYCQQYHRLPLSFGGGTKVEIK gave 330 µM (2 of 3 replicates; controls 1 of 9). Variant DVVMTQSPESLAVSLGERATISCKSSQSVRYESRNKNSKAWYQQKAGQPPKLLIYWASTRESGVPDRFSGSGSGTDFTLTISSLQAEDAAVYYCQWYHRLPLSFGGGTKVEIK showed nd (0 of 3 replicates; controls 1 of 9). Variant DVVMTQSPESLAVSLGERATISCKSSQSVLYESRNKQSWAWYQQKAGQPPKLLIYWASTRESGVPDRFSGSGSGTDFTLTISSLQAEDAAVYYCQQYHALPLSFGGGTKVEIK showed 400 nM (3 of 3 replicates; controls 0 of 9). Variant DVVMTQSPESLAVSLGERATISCKSSQSVLYESRNVNSIAWYQQKAGQPPKLLIYWASTRESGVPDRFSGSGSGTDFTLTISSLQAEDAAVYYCQQYGRLPLSFGGGTKVEIK showed 5.6 nM (3 of 3 replicates; controls 2 of 9).

Variant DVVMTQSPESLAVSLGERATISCGSSQSVLYESRNKNSNAWYQQKAGQPPKLLIYWASTRQSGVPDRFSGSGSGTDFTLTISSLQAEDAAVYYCQQYHRLPLSFGGGTKVEIK gave nd (0 of 3 replicates; controls 0 of 9).

Picked from the list: the 2 lowest averages where every replicate gave a value.

VL,apparent Kd,seen in,control signals
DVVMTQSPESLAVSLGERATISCKSSQSVLYESRNVNSIAWYQQKAGQPPKLLIYWASTRESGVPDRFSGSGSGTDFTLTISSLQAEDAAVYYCQQYGRLPLSFGGGTKVEIK,5.6 nM,3/3,2/9
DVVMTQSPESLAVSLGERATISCKSSQSVLYESRNKNSLAWYQQKAGQPPKLLIYWASTRESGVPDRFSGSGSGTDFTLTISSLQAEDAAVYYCQLYHRLPLSFGGGTKVEIK,38 nM,3/3,0/9